Source: US20130310344A1, “N-ACYLSULFONAMIDE APOPTOSIS PROMOTERS” (ASTRAZENECA AB, priority 2010, published 2013)

Amino acid sequences for entries named in this document (tags omitted). Residues count along the entry.
UniProt Q07817, 1-209 limits assumed: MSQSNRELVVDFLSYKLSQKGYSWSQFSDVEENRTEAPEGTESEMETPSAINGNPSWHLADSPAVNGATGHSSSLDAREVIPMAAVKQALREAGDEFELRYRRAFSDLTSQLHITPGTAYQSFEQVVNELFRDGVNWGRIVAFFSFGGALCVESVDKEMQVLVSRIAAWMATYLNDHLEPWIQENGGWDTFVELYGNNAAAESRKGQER
UniProt P10415, 1-204 limits assumed: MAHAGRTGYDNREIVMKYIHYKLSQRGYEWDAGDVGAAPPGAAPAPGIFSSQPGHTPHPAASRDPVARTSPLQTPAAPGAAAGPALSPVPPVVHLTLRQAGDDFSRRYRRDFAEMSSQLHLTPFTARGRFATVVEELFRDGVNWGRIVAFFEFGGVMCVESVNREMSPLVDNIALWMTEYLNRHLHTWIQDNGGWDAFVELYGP

Key:
Bcl-XL = Bcl-XL (Homo sapiens, UniProt Q07817); experiment: Bcl-XL FP assay (competitive fluorescence polarization binding assay, FITC-Bim BH-3 peptide tracer); conditions: read-out: Bcl-XL FP assay IC50; C-terminal 6×HIS tagged Bcl-XL (aa 1-209), 0.8 nM; 2 nM FITC-Bim peptide tracer; tested form: formic acid salt; mixture of two diaster
Bcl-2 = Bcl-2 (Homo sapiens, UniProt P10415); experiment: Bcl-2 FP assay (competitive fluorescence polarization binding assay, FITC-Bim BH-3 peptide tracer); conditions: read-out: Bcl-2 FP assay IC50; c-terminal 6×HIS tagged Bcl-2 (aa 1-204), 1.3 nM; 2 nM FITC-Bim peptide tracer; tested form: formic acid salt; mixture of two diaster

Structure (SMILES): O=C(NS(=O)(=O)c1ccc(N[C@H](CCN2CCN(CC(O)CF)CC2)CSc2ccccc2)c(S(=O)(=O)C(F)(F)F)c1)c1ccc(N2CCC([C@@H](O)c3ccccc3-c3ccc(Cl)cc3)CC2)cc1 (some centres unmarked)
- IC50 (Bcl-XL): 2 nM
- IC50 (Bcl-2): 1 nM
